Inhibition data for 1 compound are collected here from PubChem BioAssay AID485272 (The Scripps Research Institute Molecular Screening Center, 2010).

Chains of the proteins cited; added tags and fusions are not shown.
UniProt Q9UM07, whole entry: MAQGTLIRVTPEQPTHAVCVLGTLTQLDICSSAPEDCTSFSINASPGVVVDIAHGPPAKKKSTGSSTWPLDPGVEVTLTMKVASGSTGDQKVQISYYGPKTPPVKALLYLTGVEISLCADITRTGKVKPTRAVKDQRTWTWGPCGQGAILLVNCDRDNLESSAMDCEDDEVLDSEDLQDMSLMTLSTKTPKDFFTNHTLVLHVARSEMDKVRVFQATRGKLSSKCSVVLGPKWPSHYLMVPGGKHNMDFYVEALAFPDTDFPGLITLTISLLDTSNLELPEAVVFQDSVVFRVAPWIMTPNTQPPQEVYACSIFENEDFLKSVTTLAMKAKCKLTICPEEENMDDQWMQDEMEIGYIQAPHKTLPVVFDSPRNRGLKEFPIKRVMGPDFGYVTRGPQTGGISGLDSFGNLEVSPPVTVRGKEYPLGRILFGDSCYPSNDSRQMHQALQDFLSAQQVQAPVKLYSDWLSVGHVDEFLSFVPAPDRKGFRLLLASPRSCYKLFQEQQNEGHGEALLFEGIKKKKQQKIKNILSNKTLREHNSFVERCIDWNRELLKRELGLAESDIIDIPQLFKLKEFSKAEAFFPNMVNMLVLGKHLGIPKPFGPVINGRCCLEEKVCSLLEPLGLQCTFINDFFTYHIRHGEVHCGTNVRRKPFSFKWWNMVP

Only a part is listed here, and it is no random draw. Calls of active or inactive are those of the source.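 Rule for the calls: active = percent inhibition above a cutoff equal to the mean of all tested compounds plus 3 SD (cut at about 15% in these data); inactive = the rest.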

In the experiment the target is Protein-arginine deiminase type-4 (Homo sapiens) (UniProt Q9UM07). The experiment in a line: human PAD4 inhibitors, primary screen, biochemical, fluorescence polarization, 1536-well format (AID 485272).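 Note: 0% = PAD4 with RCA probe and DMSO and 100% = probe without PAD4.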 The following applies: recombinant PAD4, RCA probe fluorescence polarization; at 6.36 µM; active compounds read high. A general note: Fluorescence polarisation rises when a labelled molecule tumbles more slowly, as on binding a larger partner.
Turning to `CCCOc1ccc(NP(C)(=O)Oc2ccc(Cl)cc2)cc1` (stereo unspecified), the inhibition (as a rule, the drop in the measured response relative to a control, in per cent) was inactive: -2.78%.
